Test system: zebrafish cell lines vs zebrafish embryo
Test: Potency ratios IC50;x/EC50;x (cytotoxicity assays vs mFET)
Settings: median over cytotoxicity endpoints, nominal, 48 h cells / 48 hpf mFET

`CCCSc1ccc2nc(NC(=O)OC)[nH]c2c1` [Albendazole, albendazole] was tested, and the “potency ratio IC50;nom/EC50;nom (median)” value was 17.0.

Reference: publication PMC7872314, “Modeling Bioavailable Concentrations in Zebrafish Cell Lines and Embryos Increases the Correlation of Toxicity Potencies across Test Systems” (Environmental Science & Technology, 2020)
